Target: T1, Adenosine deaminase (Homo sapiens, UniProt P00813)
T1 sequence (P00813 whole entry): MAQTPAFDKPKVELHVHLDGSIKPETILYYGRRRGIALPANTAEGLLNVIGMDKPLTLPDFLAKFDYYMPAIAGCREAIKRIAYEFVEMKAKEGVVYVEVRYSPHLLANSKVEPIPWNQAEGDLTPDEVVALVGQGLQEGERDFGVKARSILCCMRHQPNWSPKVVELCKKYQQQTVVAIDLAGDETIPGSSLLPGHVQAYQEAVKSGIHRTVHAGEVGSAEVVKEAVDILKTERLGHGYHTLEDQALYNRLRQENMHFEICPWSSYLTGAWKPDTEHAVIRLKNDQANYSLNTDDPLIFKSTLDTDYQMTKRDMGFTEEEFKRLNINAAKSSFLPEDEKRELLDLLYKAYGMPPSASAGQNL
Assay: Inhibitory concentration against adenosine deaminase

Question: `C[C@H](O)[C@@H](CCc1cccc2nc(-c3ccc(Cl)cc3)oc12)n1cnc(C(N)=O)c1` was tested. Which IC50 did it give?
Answer: Its IC50 is 8.6 nM.
